{"source": "patent US10351573B2", "about": "“Benzoic acid, benzoic acid derivatives and heteroaryl carboxylic acid conjugates of hydrocodone, prodrugs, methods of making and uses thereof” (KemPharm, Inc., priority 2009, dated 2019)", "experiment": "Water solubility / feasibility of intranasal or intravenous dosing"}
{"substance": "salicylate hydrocodone [Compound 2-OH-Bz-HC]", "values": [{"measurement": "water solubility (in words)", "result": "hydrophobic"}]}
